Earlier results, collected in patent publication US8173686B2, “Use of picoplatin to treat colorectal cancer” (priority 2006, dated 2012).

Details: in vivo

O=C1[O][Pt]2([NH][C@@H]3CCCC[C@H]3[NH]2)[O]C1=O [oxaliplatin]
main / dose-limiting toxicity: Peripheral neurotoxicity is well documented
